scFv variants of Ab-14 (heavy chain) against a SARS-CoV-2 spike peptide

Values reported by Li et al. 2023, doi:10.1038/s41467-023-39022-2 (FLAb copy).

Antigen: PDVDLGDISGINAS, a 14-residue peptide of the SARS-CoV-2 spike HR2 region.

Parent scFv Ab-14: VH joined to VL by three GGGGS repeats. Changes lie in the heavy chain CDRs alone.
VH: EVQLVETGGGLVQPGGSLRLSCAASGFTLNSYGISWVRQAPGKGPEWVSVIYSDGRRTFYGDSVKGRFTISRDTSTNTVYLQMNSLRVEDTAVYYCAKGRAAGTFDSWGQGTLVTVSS
VL: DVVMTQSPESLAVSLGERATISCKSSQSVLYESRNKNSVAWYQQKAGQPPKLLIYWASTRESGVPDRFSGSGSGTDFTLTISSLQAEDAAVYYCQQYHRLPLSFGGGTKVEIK

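The starting antibody came from a phage panning campaign against this peptide. This is the validation round: designs drawn from the data on random variants, tested in the same kind of assay. Several design methods are mixed in this list. AlphaSeq pools MATa yeast showing the antibodies with MATalpha yeast showing the peptide. Mating (16 h, 30 °C) was followed by selection of diploids and sequencing of their barcodes. Each replicate has its own calibration line, from reference interactions of the BCL2 family. The assay was run in six technical replicates.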

Variants are written as CDR1, CDR2 and CDR3 of the heavy chain (limits as in the source). Parent: GFTLNSYGIS, VIYSDGRRTFYGDSVK, GRAAGTFDS.
The read-out is the apparent dissociation constant on a log10 scale (nM): the lower, the stronger.
A mean of the replicates is given; it leaves out those without a signal.
"nd" means that the variant was in the library but no mating with the target was seen in any replicate; the authors take this as a sign of poor binding, and no number exists.

| mean, log10 nM | detected | CDR-H1 | CDR-H2 | CDR-H3 |
|---|---|---|---|---|
| nd | 0/6 | GFTLNSYGIS | VIYSDGRRTFYDDSVK | GRACGTFDT |
| 0.18 | 6/6 | GFDLNSYGIS | VIYSDGRRTFYGDSVK | GQAAGTFDT |
| nd | 0/6 | GFTLNEYGIS | VIYSDGRETFYADSVK | GRAALTFDS |
| 1.40 | 6/6 | GFGIGEYGIS | VIYADGRRTFYSDDVK | GNMIVAGVD |
| -0.57 | 6/6 | GFDLNEYGIS | VIYADGKRTSYADDVK | GENAGTFDV |
| 0.84 | 3/6 | GFWLNEYGIS | VIYSDGRRTFYGDAVK | GRAAGTFDI |
| -0.18 | 6/6 | GFDLNEYGIS | VIYADGQRTAYADDVK | GENAGTFDT |
| 0.23 | 1/6 | GFTLNSYGIS | VIYSDGRRTFYIDSVK | GRIAGTFDT |
| 1.08 | 6/6 | GFQLNSYGIS | VIYSDGRRTFYSDSVK | GRSAGTFDS |
| 0.06 | 6/6 | GFDLNEYGIS | VIYADGMRTAYSDSVK | GNHAGTFDV |
| 1.80 | 1/6 | GFVLNEYGIS | VIYSDGRRTFYGDSVK | GKAAGTFDK |
| -0.42 | 6/6 | GFNLNEYGIS | VIYADGRRTFYADSVK | GEHAGSFDV |
| 0.65 | 6/6 | GFELNSYGIS | VIYSDGRRTFYGDSVK | GRQAGTFDT |
| nd | 0/6 | GFNLNSYGIS | VIYSDGRRTFYIDSVK | GRSAGTFDS |
| nd | 0/6 | GFTLNSYGIS | VIYSDGRRTMYGDSVK | GRAAGTGDH |
| -0.56 | 6/6 | KFQLNSYGIS | VIYADGRRTFYGDSVK | GRQAGTFDS |
| 0.10 | 6/6 | GFDLNEYGIS | VIYADGRRTAYSDSVK | GGNAGTFDF |
| -0.59 | 6/6 | GFDLNEYGIS | VIYADGRRTAYTDSVK | GNQAGTFDQ |
| -0.71 | 6/6 | GFDLNEYGIS | VIYADGSRTAYTDSVK | GENAGTFDV |
| nd | 0/6 | KFSLNSYGIS | VIYSDGRRTFYGDSVK | GREAGTFDS |
| nd | 0/6 | GFELNSYGIS | VIYSDGRRTFYADMVK | GKAAGTFDS |
| 3.00 | 1/6 | GITLNSYGYS | VIYSDGRRTFYGDSVK | GRAQGTQLS |
| -0.47 | 6/6 | GFDLNEYGIS | VIYADGRRTFYADSVK | GNTAGTFLM |
| nd | 0/6 | GFQIDEYGIS | VIYADGKRSMYADKVK | GVDADTMMD |
| -0.37 | 6/6 | GFDLNEYGIS | VIYADGRRTFYADSVK | GEVAGTFDV |
| nd | 0/6 | GFDLNEYGIS | VIYADGRRTFYSDSVK | GENAGFFDM |
| 1.09 | 6/6 | GFNLNSYGIS | VIYSDGRRTFYQDSVK | GKAAGTFDS |
| -0.36 | 6/6 | GFDLNEYGIS | VIYADGMRTFYADSVK | GQVAGTFDV |
| 0.35 | 6/6 | GFNLNEYGIS | VIYADGRRTFYADSVK | GQVAGTFDL |
| 1.94 | 2/6 | GFTPNSYGIS | VIYSDGRRTFYDDSVK | GQLAGTMDS |
| nd | 0/6 | GMALDEYGIS | VIYADGMRTFYSNTVK | GEDGVFYDQ |
| 0.01 | 6/6 | GFDLNEYGIS | VIYADGRRTMYTDSVK | GQNAGTFDS |
| -0.71 | 6/6 | GFDLNEYGIS | VIYADGKRTAYADKVK | GTNAGTFDV |
| -0.52 | 6/6 | GFDLNEYGIS | VIYADGMRTAYIDSVK | GNVAGTFDL |
| 2.07 | 5/6 | GFTLNDYGIS | VIYSDGRRTLYSDSVK | GRAAGTFDS |
| 1.29 | 4/6 | GFDLSEYGIS | VIYADGMRTAYSDSVK | GNVAGTFDV |
| 0.53 | 6/6 | GFDLNSYGIS | VIYSDGRRTFYVDDVK | GRQAGTFDS |
| nd | 0/6 | GFTLNSYGIS | VIYSDGKRTFYGDKVK | GRTAGTFDS |
| nd | 0/6 | GFQLDEYGIS | VIYADGLRTAYKDTVK | GSDTGLFMF |
| -0.53 | 6/6 | GFDLNEYGIS | VIYADGSRKFYADKVK | GENAGTFDV |
| -0.44 | 6/6 | GFDLNEYGIS | VIYADGRRTFYSDSVK | GQLAGTFDM |
| 1.18 | 6/6 | LFSLNEYGIS | VIYSDGRRTFYGDSVK | GRTAGTFDS |
| -0.35 | 6/6 | GFDLNEYGIS | VIYADGRRTAYADSVK | GNEAGTFDQ |
| -0.11 | 6/6 | GFDLDEYGIS | VIYADGRRTAYSDSVK | GENAGTFDQ |
| nd | 0/6 | GFTLNSYGIS | VIYSDGRRTFYGDSVK | GREKGTFDS |
| 1.57 | 1/6 | GFTLNEYGIS | VIYSDGRRTFYGDRVK | GRAAVTFDQ |
| nd | 0/6 | GFTLDEYGIS | VIYADGQRTAYTDDVK | GQYGGIGYI |
| 0.80 | 6/6 | HFDLNSYGIS | VIYSDGRRTFYIDSVK | GNAAGTFDS |
| -0.61 | 6/6 | GFDLNEYGIS | VIYADGRRTFYQDSVK | GNLAGTFDQ |
| 0.69 | 6/6 | GFDLDEYGIS | VIYADGQRTAYADDVK | GENAGTFDQ |
| -0.39 | 6/6 | GFDLNEYGIS | VIYADGMRTFYTDSVK | GEIAGTFDS |
| 0.08 | 6/6 | GFDLNSYGIS | VIYSDGRRTFYGDNVK | GRTAGTFDA |
| -0.09 | 1/6 | GFTLTQYGIS | VIYADGRRTFYGDSVK | GYAAGTFNS |
| -0.34 | 6/6 | GFDLNEYGIS | VIYADGVRTAYADSVK | GNHAGTFDI |
| 1.40 | 5/6 | GFNLNSYGIS | VIYSDGRRTFYGDSVK | GAAAGTFDS |
| -0.56 | 6/6 | GFDLNEYGIS | VIYADGRRTAYIDSVK | GEVAGTFDI |
| 2.72 | 1/6 | GFTLNMYGIS | VIYSDGRRTFYQDSVK | GYAAGTFDS |
| nd | 0/6 | GKSLDEYGIS | VIYADGTRAFYTDNVK | GLISMVFGL |
| nd | 0/6 | GFTLNSYGIS | VIYSDGRRTMYGDSVK | GSAAGTFDS |
| 3.00 | 1/6 | GFDLSEYGIS | VIYADGRRFSYTDAVK | GQVEGMLDV |
| nd | 0/6 | GFTLNEYGIT | VIYSDGRRTFYGDSVK | GRAAGTGDS |
| nd | 0/6 | GHTLDSYGIC | VIYSDGRRTFYGDSVK | GRAAGTALS |
| -0.12 | 6/6 | GFTIDEYGIS | VIYADGQRVAYNEKVK | GMLAGTFDQ |
| nd | 0/6 | GFTLDSYGIS | VIYSDGRRTFYGDSVK | GNAAGTIDS |
| -1.14 | 6/6 | GFTLDEYGIS | VIYADGRRTFYADSVK | GKVAGTFDQ |
| nd | 0/6 | GFDLNSYGIS | VIYSDGIRTFYGDSFK | GQAASTFDS |
| -0.43 | 6/6 | GFDLNEYGIS | VIYADGVRTVYADSVK | GNTAGTFDV |
| nd | 0/6 | GFTLNSYGIS | VIYSDGRRTFYKDSVK | GRAAGYFSS |
| -1.59 | 6/6 | GFDLDEYGIS | VIYADGMRTAYADSVK | GQNAGTFDI |
| 1.17 | 6/6 | GFSLNSYGIS | VIYSDGRRTFYGDKVK | GLNAGTFDS |
| nd | 0/6 | GFDLGEYGIS | VIYADGRRKGYSDSVK | GRNSINVTD |
| nd | 0/6 | GFHLNSYGIS | VIYSDGFRVFYGDSVK | GRAYGPFDS |
| -0.53 | 6/6 | GFNLDEYGIS | VIYADGRRTFYADSVK | GQVAGTFDK |
| nd | 0/6 | GFTLNDYGIS | VIYSDGRRTFYGDNVR | DRAAGTIDS |
| -0.75 | 6/6 | GFTLNSYGIS | VIYSDGRRTFYEDSVK | GQVAGTFDS |
| nd | 0/6 | GYDIDEYGIS | VIYADGQRTSYVQSVK | GAGDITGLV |
| -0.23 | 6/6 | GFDLDEYGIS | VIYADGVRTAYADSVK | GQNAGTFDL |
| nd | 0/6 | KFTLNSYGIS | VIYSDGRRTFYGDSVK | GRAAGTFEV |
| -0.34 | 6/6 | GFDLNEYGIS | VIYADGMRKSYADSVK | GNVAGTFDV |
| 1.10 | 6/6 | GFTLESYGIS | VIYADGRRTFYGDSVK | GRAAGTFDA |

A selection of 8 entries from above:

CDR-H1	CDR-H2	CDR-H3	mean, log10 nM	detected
GFTLESYGIS	VIYADGRRTFYGDSVK	GRAAGTFDA	1.10	6/6
GFTLNSYGIS	VIYSDGRRTFYEDSVK	GQVAGTFDS	-0.75	6/6
GFTLDEYGIS	VIYADGRRTFYADSVK	GKVAGTFDQ	-1.14	6/6
GFDLNEYGIS	VIYADGSRTAYTDSVK	GENAGTFDV	-0.71	6/6
GFDLNEYGIS	VIYADGKRTAYADKVK	GTNAGTFDV	-0.71	6/6
GFNLNEYGIS	VIYADGRRTFYADSVK	GQVAGTFDL	0.35	6/6
GKSLDEYGIS	VIYADGTRAFYTDNVK	GLISMVFGL	nd	0/6
GFDLNEYGIS	VIYADGMRTFYADSVK	GQVAGTFDV	-0.36	6/6

Empty control strains, which show no peptide, gave a signal in 1% of pairings with all heavy chain designs; the median was 2.08 and 95% of these signals were weaker than 0.84. No background was subtracted.
In the paper, a design with two or fewer of six values counts as a poor binder.
A sequence measured in both rounds can read differently, since the two assays cover different ranges.
The parent sequence was in this pool as ten entries: three were never detected, three once, and four in most replicates, with averages from 0.34 to 2.37.